Laboratory results published in patent publication US10533014B2, “Immunoregulatory agents” (Flexus Biosciences, Inc., priority 2014, dated 2020).

By UniProt entry, the sequences of proteins in these tests, tags left out.
UniProt P14902, whole entry: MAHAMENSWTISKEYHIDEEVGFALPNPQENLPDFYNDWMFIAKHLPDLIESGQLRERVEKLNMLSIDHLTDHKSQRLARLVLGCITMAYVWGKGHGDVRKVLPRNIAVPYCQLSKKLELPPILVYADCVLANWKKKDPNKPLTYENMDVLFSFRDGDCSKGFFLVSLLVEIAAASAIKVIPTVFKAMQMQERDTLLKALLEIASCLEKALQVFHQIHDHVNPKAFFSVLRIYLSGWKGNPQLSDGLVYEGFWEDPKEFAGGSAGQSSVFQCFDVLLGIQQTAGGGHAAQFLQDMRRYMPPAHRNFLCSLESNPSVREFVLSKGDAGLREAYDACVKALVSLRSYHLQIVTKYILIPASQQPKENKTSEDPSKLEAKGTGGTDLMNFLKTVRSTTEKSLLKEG

Biological target: human IDO1 (Homo sapiens, UniProt P14902)
Experiment: IDO inhibition assay in HEK293 cells stably expressing human IDO1 (Example 252)
Conditions: read-out: HEK Human IDO-1 Potency, 20 hours incubation, kynurenine by Ehrlich reagent, absorbance at 490 nm

IC50: < 250 nM
Compound: CC(C(=O)Nc1ccc(Cl)cc1)N1CCC(Oc2ccnc3ccc(F)cc23)CC1 (single isomer, unassigned) [103]
